Calls of active or inactive are those of the source. The calls are words filed in the database; no cut-off is given here.

By UniProt entry, the sequences of proteins in these tests, tags left out. Where a name states a change or a piece, a line headed by the entry shows the natural chain unless it says otherwise.
UniProt P40337, whole entry, looked up: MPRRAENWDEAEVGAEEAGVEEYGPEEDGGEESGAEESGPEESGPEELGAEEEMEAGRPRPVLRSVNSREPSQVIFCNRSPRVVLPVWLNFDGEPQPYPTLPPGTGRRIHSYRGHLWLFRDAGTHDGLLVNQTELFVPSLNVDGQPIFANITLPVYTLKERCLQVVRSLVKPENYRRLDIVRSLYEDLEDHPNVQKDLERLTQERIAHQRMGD
UniProt Q96SW2: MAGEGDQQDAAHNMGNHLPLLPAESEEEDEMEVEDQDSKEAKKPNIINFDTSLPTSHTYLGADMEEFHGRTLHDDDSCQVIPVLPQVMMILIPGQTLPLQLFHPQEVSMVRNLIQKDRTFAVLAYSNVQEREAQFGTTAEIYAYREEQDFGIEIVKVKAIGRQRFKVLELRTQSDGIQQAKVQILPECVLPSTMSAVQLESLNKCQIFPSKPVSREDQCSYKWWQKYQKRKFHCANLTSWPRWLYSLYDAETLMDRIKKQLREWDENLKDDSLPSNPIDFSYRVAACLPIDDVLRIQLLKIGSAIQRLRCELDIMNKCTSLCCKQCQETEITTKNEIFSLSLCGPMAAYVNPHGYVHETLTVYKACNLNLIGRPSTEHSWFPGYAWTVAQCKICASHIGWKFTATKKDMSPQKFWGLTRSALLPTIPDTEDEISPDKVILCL

The target in assay [1] is T1, von Hippel-Lindau disease tumor suppressor/Alpha-synuclein (Homo sapiens) (UniProt P37840+P40337). The assay can be described thus: PROTAC activity at VHL/alpha-synuclein in HEK293 cells assessed as decrease in alpha-synuclein phosphorylation at S129 residue measured for 48 hrs by immunoblot analysis. The format is cell-based. In general terms: In western blotting, separated proteins are transferred to a membrane and probed.

In assay [2] the target is T1, von Hippel-Lindau disease tumor suppressor/Alpha-synuclein (Homo sapiens). The assay can be described thus: PROTAC activity at VHL/alpha-synuclein in HEK293 cells assessed as decrease in alpha-synuclein aggregates measured for 48 hrs by immunoblot analysis. The assay is classed as cell-based.
Assay [3] has as its target T2, Protein cereblon/Alpha-synuclein (Homo sapiens) (UniProt P37840+Q96SW2). The assay can be described thus: PROTAC activity at CRBN/alpha-synuclein in HEK293 cells assessed as induction of alpha-synuclein aggregates by immunoblot analysis. The format is cell-based.
The target in assay [4] is T2, Protein cereblon/Alpha-synuclein (Homo sapiens). The assay is described as follows: PROTAC activity at CRBN/alpha-synuclein preformed fibrils seeded in HEK293T cells assessed as decrease in alpha-synuclein aggregates at 2.5 to 5 uM measured for 24 hrs by immunoblot analysis. The format is cell-based. As to conditions: HEK293, dose 2.5-5 µM.
For assay [5], the system named is Mus musculus. The assay can be described thus: Downregulation of alpha-synuclein level in substantia nigra pars compacta of MPTP-treated C57BL/6 mouse at 8 mg/kg, iv preadministered with MPTP for 7 days followed by compound administration for another 7 days by immunohistochemistry analysis. The format is functional, organism-based. As to conditions: time 7.0 day.

Assay [6] relates to Mus musculus. The assay is described as follows: Downregulation of phosphorylated tau at S404 residue level in hippocampus CA3 region of MPTP-treated C57BL/6 mouse at 8 mg/kg, iv preadministered with MPTP for 7 days followed by compound administration for another 7 days by immunohistochemistry analysis. The assay is classed as functional, organism-based. As to conditions: time 7.0 day.

Assay [7] relates to Mus musculus. The assay can be described thus: Downregulation of total aggregated protein level in substantia nigra pars compacta of MPTP-treated C57BL/6 mouse at 8 mg/kg, iv preadministered with MPTP for 7 days followed by compound administration for another 7 days by ThS staining based analysis. The format is functional, organism-based. As to conditions: time 7.0 day.
The test system of assay [8] is Mus musculus. The assay can be described thus: Anti-parkinson's disease activity in MPTP-induced C57BL/6 mouse model assessed as change in phosphorylated S129 level in brain at 2 to 8 mg/kg, iv preadministered with MPTP for 7 days followed by compound administration for another 7 days by immunoblot analysis. As to conditions: dose 2-8 mg/kg, time 7.0 day. The format is functional, organism-based.

Assay [9] concerns Mus musculus. The assay can be described thus: Anti-parkinson's disease activity in MPTP-induced C57BL/6 mouse model assessed as decrease in phosphorylated tau level in brain at 8 mg/kg, iv preadministered with MPTP for 7 days followed by compound administration for another 7 days by immunoblot analysis. The assay is classed as functional, organism-based. As to conditions: time 7.0 day.

Assay [10] has as its system SH-SY5Y. The assay can be described thus: Neuroprotective activity against human SH-SY5Y cells assessed as reduction in ROS level incubated for 24 hrs by DCFH-DA staining based laser scanning microscopic analysis. The format is functional, cell-based.
For assay [11], the system named is SH-SY5Y. The assay can be described thus: Cytotoxicity against human SH-SY5Y cells assessed as reduction in cell viability upto 10 uM by CCK-8 assay. The format is functional, cell-based. (In general: Tetrazolium assays rely on reduction of a dye to a coloured formazan, in cell work by metabolically active cells.)
Assay [12] has as its system Mus musculus. The assay is described as follows: Neuroprotective activity in MPTP-treated C57BL/6 mouse assessed as neuron viability in substantia nigra pars compacta at 8 mg/kg, iv preadministered with MPTP for 7 days followed by compound administration for another 7 days by Nissl staining based microscopy. The note with it: time 7.0 day. The format is functional, organism-based.

Another assay deals with HEK-293T. The assay is described as follows: Effect on GSPT1 level in HEK293T cells upto 10 uM incubated for 24 hrs by Western blot analysis. The assay is classed as functional, cell-based. The note with it: Homo sapiens.
Assay [13] deals with Mus musculus. The assay can be described thus: Anti-parkinson's disease activity in MPTP-induced C57BL/6 mouse model assessed as decrease in total tau level in brain at 8 mg/kg, iv preadministered with MPTP for 7 days followed by compound administration for another 7 days by immunoblot analysis. The note with it: time 7.0 day. The assay is classed as functional, organism-based.

A further assay deals with Cell membrane. The assay can be described thus: Induction of mitochondrial membrane potential depolarization in human SH-SY5Y incubated for 24 hrs by JC-1 staining based flow cytometric analysis. The format is cell membranes. For orientation: Flow cytometry measures light scatter and fluorescence of single cells or particles in a stream.
Assay [14] has as its system Mus musculus. The assay is described as follows: Downregulation of phosphorylated tau at S404 residue level in hippocampus CA1 region of MPTP-treated C57BL/6 mouse at 8 mg/kg, iv preadministered with MPTP for 7 days followed by compound administration for another 7 days by immunohistochemistry analysis. The assay is classed as functional, organism-based. The note with it: time 7.0 day.

Assay [15] concerns Mus musculus. The assay can be described thus: Neuroprotective activity in MPTP-treated C57BL/6 mouse assessed as decrease in impaired neurons in substantia nigra pars compacta at 8 mg/kg, iv preadministered with MPTP for 7 days followed by compound administration for another 7 days by FJB staining based microscopy. The assay is classed as functional, organism-based. As to conditions: time 7.0 day.

The subject of assay [16] is Mus musculus. The assay can be described thus: Anti-parkinson's disease activity in MPTP-induced C57BL/6 mouse model assessed as change in alpha-synuclein level in brain at 2 to 8 mg/kg, iv preadministered with MPTP for 7 days followed by compound administration for another 7 days by immunoblot analysis. The note with it: dose 2-8 mg/kg, time 7.0 day. The assay is classed as functional, organism-based.

`Cc1ncsc1-c1ccc(CNC(=O)[C@@H]2C[C@@H](O)CN2C(=O)[C@@H](NC(=O)CCOCCOCCNc2ccc(-c3nc4cc(Cl)ccc4s3)cc2)C(C)(C)C)cc1`: the result in [1] and in assay [2] was inactive.
As to `O=C(CCOCCOCCOCCNc1ccc(-c2nc3cc(Cl)ccc3s2)cc1)NCCOCCOCCNc1cccc2c1C(=O)N(C1CCC(=O)NC1=O)C2=O` (centres undefined), in assay [3], the result was inactive.
For the compound `O=C(COc1cccc2c1C(=O)N(C1CCC(=O)NC1=O)C2=O)NCCOCCOCCOCCNc1ccc(-c2nc3ccccc3s2)cc1` (centres undefined), the result in [4] was Active.
For `Cc1ncsc1-c1ccc(CNC(=O)[C@@H]2C[C@@H](O)CN2C(=O)[C@@H](NC(=O)CCOCCOCCOCCNc2ccc(-c3nc4cc(Cl)ccc4s3)cc2)C(C)(C)C)cc1`, the outcome in assay [1] and in assay [2] was inactive.
Take `Cc1ccc2nc(-c3ccc(NCCOCCOCCOCCC(=O)NCCOCCOCCNc4cccc5c4C(=O)N(C4CCC(=O)NC4=O)C5=O)cc3)sc2c1` (centres undefined): in [3], the outcome was inactive.
For `Cc1ccc2nc(-c3ccc(NCCOCCOCCOCCNC(=O)COc4cccc5c4C(=O)N(C4CCC(=O)NC4=O)C5=O)cc3)sc2c1` (centres undefined), the outcome in the assay with Mus musculus [5], in the assay with Mus musculus [6], with Mus musculus [7], in the assay with Mus musculus [8], in the assay with Mus musculus [9] and in the assay on SH-SY5Y [10] was Active. The result in the assay with SH-SY5Y [11], in the assay on Mus musculus [12], in the assay with HEK-293T, in the assay with Mus musculus [13], with Cell membrane and with Mus musculus [14] was Active. In addition, the outcome in the assay on Mus musculus [15] and in the assay with Mus musculus [16] was Active.
As for `Cc1ccc2nc(-c3ccc(NCCOCCOCCOCCC(=O)N[C@H](C(=O)N4C[C@H](O)C[C@H]4C(=O)NCc4ccc(-c5scnc5C)cc4)C(C)(C)C)cc3)sc2c1`, the outcome in [1] and in assay [2] was inactive.
Turning to `Cc1ccc2nc(-c3ccc(NCCOCCNC(=O)COc4ccc(C5CCC(=O)NC5=O)cc4)cc3)sc2c1` (centres undefined), the result in [3] was inactive.

For the origin of these results see ChEMBL document CHEMBL5518199, “Discovery of Effective Dual PROTAC Degraders for Neurodegenerative Disease-Associated Aggregates” (J Med Chem, 2024).
